## Measured affinities in a library of Ab-91 heavy chain variants

Data: MIT Lincoln Laboratory AlphaSeq set, Engelhart et al. 2022, doi:10.1038/s41597-022-01779-4, as distributed in FLAb.

Target peptide (SARS-CoV-2 spike, HR2 region): PDVDLGDISGINAS

Ab-91 is the parent antibody, in scFv form: VL, then three GGGGS repeats, then VH. The light chain is unchanged in all variants.
VL: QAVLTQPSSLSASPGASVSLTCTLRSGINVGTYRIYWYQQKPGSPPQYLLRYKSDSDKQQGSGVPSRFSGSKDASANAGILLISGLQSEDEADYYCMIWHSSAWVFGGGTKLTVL
VH: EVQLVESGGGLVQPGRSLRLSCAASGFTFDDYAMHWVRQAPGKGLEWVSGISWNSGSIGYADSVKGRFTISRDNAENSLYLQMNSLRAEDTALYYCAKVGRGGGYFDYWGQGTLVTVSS

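Phage display of a naive human antibody library on the peptide gave the parent. Library AAYL51 holds single substitutions and randomly drawn double and triple substitutions in the CDRs. AlphaSeq pools MATa yeast showing the antibodies with MATalpha yeast showing the peptide. The frequency of each diploid, read from paired DNA barcodes, reflects how well the two displayed proteins bind. Scores were corrected for input abundance and mapped to Kd with protein pairs of known affinity run in the same pool. Each pool was mated in three replicate cultures.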

Changes read parent residue, position, new residue, counted from the first residue of the VH shown. This list gathers variants with a substitution at G59 (VH, numbered from residue 1). Numbers give log10(Kd / nM), so 0 is 1 nM and 3 is 1 µM. Smaller is tighter. Averages over replicates are reported, and they cover detected replicates only. "nd" marks a missing value. The strain was present, yet no cells mated with the target were sequenced in that replicate, which points to weak or no binding.

With G59R A61N R101A the result was 5.57, 5.56, nd (mean 5.57).
With G26V I51S G59Y the result was 5.10, nd, nd.
With T28P W53V G59D the result was 4.85, nd, nd.
With W53C G59F G102L the result was nd, 4.54, nd.
With H35Q G59P G102E the result was nd, nd, nd.
With M34S G59D V99Q the result was 5.50, 4.80, nd (mean 5.15).
With F29G G59D V64Y the result was 5.82, nd, nd.
With G26E T28P G59M the result was nd, nd, nd.
With S52A G59P the result was nd, 4.72, nd.
With A33Y G59S D62A the result was 6.23, 6.38, 5.25 (mean 5.95).
With G59E V64M V99S the result was 3.53, 3.34, 3.10 (mean 3.32).
With F29M G59I V64Q the result was 2.93, nd, nd.
With Y32Q G59Q the result was nd, nd, nd.
With G50T G59R D107H the result was nd, nd, 4.28.
With G59T Y60E G102M the result was 4.00, nd, nd.
With F27M G50P G59C the result was 3.60, nd, nd.
With S57G G59D Y108N the result was nd, nd, nd.
With G59L Y105M F106Y the result was 3.74, nd, 4.06 (mean 3.90).
With A33N G59M G100W the result was nd, 4.10, nd.
With S55M G59T V64Y the result was nd, nd, nd.
With G59W K65S the result was nd, nd, nd.
With F27M I51C G59K the result was nd, 5.49, nd.
With G59R V64P Y105R the result was nd, nd, nd.
With G59E G104L D107G the result was nd, nd, nd.
With A33F G59R V99H the result was nd, nd, nd.
With T28E G59D the result was nd, nd, nd.
With G59D V64R V99C the result was 5.48, 5.07, nd (mean 5.27).
With G59A the result was 4.81, 5.06, 4.80 (mean 4.89).
With I58E G59R G104N the result was 4.57, nd, nd.
With G59D Y105N the result was 6.55, 4.46, nd (mean 5.50).
With G56N G59H D107N the result was nd, nd, nd.
With T28H S57Q G59R the result was 4.72, 4.74, nd (mean 4.73).
With G26S G59C Y105H the result was nd, nd, nd.
With T28S I58Y G59Y the result was nd, nd, nd.

The first 4 variants above that were never detected:

{"changes": "H35Q G59P G102E", "replicates, log10 nM": "nd, nd, nd", "mean, log10 nM": "nd"}
{"changes": "G26E T28P G59M", "replicates, log10 nM": "nd, nd, nd", "mean, log10 nM": "nd"}
{"changes": "Y32Q G59Q", "replicates, log10 nM": "nd, nd, nd", "mean, log10 nM": "nd"}
{"changes": "S57G G59D Y108N", "replicates, log10 nM": "nd, nd, nd", "mean, log10 nM": "nd"}

Parent in this assay: reference entry 1.86, copy in this library 0.88. Three control strains display no target. For library AAYL51, 21% of the pairings with them gave a signal, with a median of 4.54 and one signal in twenty below 3.26, so weak values seen in few replicates may be background.